# Measurements as given in PubChem BioAssay AID2796 (The Scripps Research Institute Molecular Screening Center, 2010).
# Protein sequences, listed by entry. Tags and fused reporters are not part of them.
# UniProt P35869, whole entry: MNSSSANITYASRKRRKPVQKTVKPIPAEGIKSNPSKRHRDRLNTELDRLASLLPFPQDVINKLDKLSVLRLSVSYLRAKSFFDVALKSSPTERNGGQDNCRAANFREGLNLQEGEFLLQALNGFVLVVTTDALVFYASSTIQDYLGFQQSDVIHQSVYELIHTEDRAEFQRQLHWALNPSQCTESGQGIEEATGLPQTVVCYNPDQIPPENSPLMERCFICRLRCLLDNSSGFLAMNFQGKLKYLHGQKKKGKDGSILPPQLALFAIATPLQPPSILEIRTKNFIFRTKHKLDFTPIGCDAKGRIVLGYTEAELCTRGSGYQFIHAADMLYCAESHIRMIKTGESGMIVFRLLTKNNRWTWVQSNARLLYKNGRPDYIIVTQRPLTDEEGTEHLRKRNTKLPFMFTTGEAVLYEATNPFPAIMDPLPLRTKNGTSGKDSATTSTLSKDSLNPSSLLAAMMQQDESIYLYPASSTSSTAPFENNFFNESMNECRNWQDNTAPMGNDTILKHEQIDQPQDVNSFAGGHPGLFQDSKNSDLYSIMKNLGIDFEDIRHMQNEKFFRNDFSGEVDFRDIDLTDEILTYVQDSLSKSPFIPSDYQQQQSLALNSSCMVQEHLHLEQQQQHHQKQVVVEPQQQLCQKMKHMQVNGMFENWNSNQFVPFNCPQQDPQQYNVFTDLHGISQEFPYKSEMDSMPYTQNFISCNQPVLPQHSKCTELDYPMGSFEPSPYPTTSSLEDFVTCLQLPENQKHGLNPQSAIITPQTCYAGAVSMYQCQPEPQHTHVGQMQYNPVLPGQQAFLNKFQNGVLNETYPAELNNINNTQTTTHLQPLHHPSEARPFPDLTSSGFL
# The entries are a selection whose mix differs from that of the whole data set. The source made the active and inactive calls. Rule as the data show it: active = activation above about 47%; inactive = the rest.
# Biological target: Aryl hydrocarbon receptor (Homo sapiens) (UniProt P35869)
# Test: AHR activators, primary screen, cell-based, luminescence, luciferase reporter, human (AID 2796);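 also: 0% = vehicle wells and 100% = reference agonist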
# Conditions: AHR-responsive luciferase reporter cells, at 5 µM, active compounds read high
row,Structure (SMILES),activation
1,CCC(=O)N(c1ccccc1)C1(COC)CCN(CCn2nnn(CC)c2=O)CC1,inactive: -2.02%
2,CCC(=O)N(c1ccccc1)C1(COC)CCN(CCc2cccs2)CC1,inactive: -0.55%
